Chains of the proteins cited; added tags and fusions are not shown.
UniProt P28907, whole entry: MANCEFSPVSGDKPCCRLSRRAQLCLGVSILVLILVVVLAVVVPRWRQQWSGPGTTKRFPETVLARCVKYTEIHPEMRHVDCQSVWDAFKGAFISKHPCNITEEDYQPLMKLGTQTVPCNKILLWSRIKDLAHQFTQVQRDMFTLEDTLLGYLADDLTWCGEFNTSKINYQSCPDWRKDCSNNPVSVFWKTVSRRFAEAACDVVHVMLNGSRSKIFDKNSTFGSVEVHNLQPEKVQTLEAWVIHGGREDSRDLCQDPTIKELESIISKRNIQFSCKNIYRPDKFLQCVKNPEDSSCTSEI

According to patent US20210122804A1, “PEPTIDE LIGANDS FOR BINDING TO CD38” (BicycleTx Limited, priority 2018, published 2021):

molecular target: human CD38 (Homo sapiens, UniProt P28907); assay: CD38 Competition Binding Assay (fluorescence polarisation); conditions: Table 1; TBMB derivatives; average of two measurements; tracer ACTPCADFPIWGCA-Sar6-K(F1); read-out: Ki
Procedure: CD38 Competition Binding Assay Affinity of various bicycle peptide compounds for human CD38 (Ki) was determined using a fluorescence polarisation assay, using the method reported by Lea et al (Expert Opin Drug Discov. 2011 6(1): 17-3) and using the following fluorescently labelled peptides ACTPCADFPIWGCA-Sar6-K(F1) for TBMB derivatives and ACYWNPFTGCYTCA-Sar6-K(F1) for TATA derivatives where Fl is a fluorescein molecule.

Substance	Ki [nM]
[Ac]ACVPCADFPIWY[Dap(Me)] [BCY00009248]	698
[Ac]A[Dap(Me)]VPCADFPIWY[Dap(Me)] [BCY00009251]	331
[Ac]A[Dap(Me)]VPCADFPIWYC [BCY00009246]	46.3

same assay, conditions: Table 2; reference bicycle ligands, TBMB or TATA scaffold (tracer differs by scaffold); evaluated as described in GB1800610.6

Substance	Ki [nM]
ACFWLDGECFDLGGQCA [66-08-53-N001]	119 ± 27.4
Ac-CTPCADFPIWYC [66-03-06-N002]	106
ACFELDGECFHFGEPCA [66-08-46-N001]	1040 ± 170
ACFHLDGECFDLAKTCA [66-08-45-N001]	8190
(B-Ala)-Sar10-ACVPCADFPIWYC [66-03-00-N006]	43.7 ± 14.7
ACFELDGECFSFPGTCA [66-08-50-N001]	196 ± 99
ACFELDGECFNIGSKCA [66-08-57-N001]	1100 ± 44.1
ACFSLDGACFDWTHECA [66-08-26-N001]	987
ACVPCADFPISFCA [66-03-25-N002]	208 ± 26.5
ACTPCADFPILDCA [66-03-10-N001]	1700
Ac-ACFMLDGECFDLNKECA [66-08-05-N001]	1370
ACYWNPFMGCYSCA [66-50-12-N001]	315 ± 363
ACFYLDGTCFDWTHECA [66-08-41-N001]	1200
ACVACADFPIWGCA [66-03-08-N001]	174
ACVKCADFPIWGCA [66-03-11-N001]	41.3 ± 14.3
ACYWNPFTACYSCTEN [66-50-19-T002-N001]	315 ± 4.9
ACVNFGSVCWDPDSRCA [Example 66-02-N002]	3660 ± 319
RHSNYCNFLCDDLCA-Sar6-K(Biotin) [66-20-00-T001-N001]	2920
ACFTLDGECFLLGENCA [66-08-52-N001]	563 ± 211
ACFELDGECFDLDNQCA [66-08-54-N001]	477 ± 122
ACDFTMPCENWKYCA [66-05-07-N001]	2530
ACTPCADFPIHTCA [66-03-02-N001]	995
ACDYCIRLGLTGCA [Example 66-12-N001]	520
Ac-CVPCADFPIWGC [66-03-04-N002]	152
ACFRLDDECFDWTHECA [66-08-28-N001]	1160
ACYWNPFSGCYSCA [66-50-07-N001]	498 ± 199

Substance	Ki [nM]
ACYWNPFIQCSPCA [66-50-03-N001]	1700 ± 872
ACIPCADFPIFTCA [66-03-29-N003]	139 ± 25.5
ACVPCADFPIFTCA [66-03-28-N002]	44.5 ± 14.7
DOTA-(B-Ala)-Sar10-A-CVPCADFPIWYC [66-03-00-N007]	52.5 ± 26.5
ACYWNPFMGCYVCA [66-50-14-N001]	940 ± 285
ACYWNPFTGCYACDST [66-50-15-T01-N001]	104 ± 90.2
ACFELDGTCFDWAQECA [Example 66-01-N002]	1180 ± 286
ACTPCADFPILTCA [66-03-07-N001]	257
ACYWNPFTGCYSCA [66-50-02-N001]	97.8 ± 22.7
ACFRLDGVCFDLDDECA [66-08-29-N001]	988
ACYWNPFTACWSCEND [66-50-16-T01-N001]	90 ± 49
ACFLLDGECFDWAQECA [66-08-43-N001]	131
ACDWCIDPGVSFCA-Sar6-K(Biotin) [66-10-03-N001]	3140
ACIRYGDICFHPDYTCA [Example 66-17-N001]	1170
ACVHCADFPIWGCA [66-03-03-N001]	61 ± 1.96
ACYWNPFMACFDCA [66-50-11-N001]	684 ± 158
ACTPCADFPIYGCA [66-03-09-N001]	1050
ACTWCVDDETWNCA [Example 66-11-N001]	767
ACTPCADFPIWSCA [66-03-01-N001]	471
ACYWNPFSGCWDCA [66-50-10-N001]	335 ± 56.8
ACDYCVRLGLTGCA [Example 66-09-N001]	1260
SSQHGCAWLCPNLCA-Sar6-K [66-08-01-N006]	106
ACFLLDGECFDLIGECA [66-08-49-N001]	1360 ± 151
ACTPCADFPIWGCA-Sar6-K(Biot) [Example 66-03-N003]	833 ± 357
ACYWNPFTACYVCDVP [66-50-19-T001-N001]	575 ± 220
